Reference: ChEMBL document CHEMBL5584356, “Discovery of 6,7-Dihydropyrazolo[1,5-a]pyrazin-4(5H)-one Derivatives as mGluR2 Negative Allosteric Modulators with In Vivo Activity in a Rodent's Model of Cognition” (J Med Chem, 2024)

Organism: Rattus norvegicus
Assay: Pro-cognitive activity in male Long-Evans rat assessed as reversal of phencyclidine induced disruption of preference for exploration of new arm pretreated for 4 hrs followed by treated with PCP measured after 30 mins by V-maze (visual-spatial working memory task) cognition test
Type: functional, organism-based
Details: dose 0.16-0.63 mg/kg, route po, time 4.5 hrs

`Cc1cc(-c2cnn3c2C(=O)N(c2ccc(C(F)(F)F)cc2)C[C@@H]3C)ccn1` was tested, and the Activity was “Dose-Dependent Effect”.
